Experimental data: ChEMBL document CHEMBL4396888, “Design and Synthesis of Potent, Selective Inhibitors of Protein Arginine Methyltransferase 4 against Acute Myeloid Leukemia” (J Med Chem, 2019)

Assays:
Homo sapiens [1] = species: Homo sapiens; test: Selectivity ratio of IC50 for PRMT5 (unknown origin) to IC50 for PRMT4 (unknown origin)
[2] = target: T1, Histone-arginine methyltransferase CARM1 (Homo sapiens) (UniProt Q86X55); test: Inhibition of wild-type PRMT4 (unknown origin) ectopically expressed in HEK293T cells assessed as reduction in BAF155 dimethylation measured after 96 hrs by Western blotting analysis; format: cell-based
T1 sequence (whole entry): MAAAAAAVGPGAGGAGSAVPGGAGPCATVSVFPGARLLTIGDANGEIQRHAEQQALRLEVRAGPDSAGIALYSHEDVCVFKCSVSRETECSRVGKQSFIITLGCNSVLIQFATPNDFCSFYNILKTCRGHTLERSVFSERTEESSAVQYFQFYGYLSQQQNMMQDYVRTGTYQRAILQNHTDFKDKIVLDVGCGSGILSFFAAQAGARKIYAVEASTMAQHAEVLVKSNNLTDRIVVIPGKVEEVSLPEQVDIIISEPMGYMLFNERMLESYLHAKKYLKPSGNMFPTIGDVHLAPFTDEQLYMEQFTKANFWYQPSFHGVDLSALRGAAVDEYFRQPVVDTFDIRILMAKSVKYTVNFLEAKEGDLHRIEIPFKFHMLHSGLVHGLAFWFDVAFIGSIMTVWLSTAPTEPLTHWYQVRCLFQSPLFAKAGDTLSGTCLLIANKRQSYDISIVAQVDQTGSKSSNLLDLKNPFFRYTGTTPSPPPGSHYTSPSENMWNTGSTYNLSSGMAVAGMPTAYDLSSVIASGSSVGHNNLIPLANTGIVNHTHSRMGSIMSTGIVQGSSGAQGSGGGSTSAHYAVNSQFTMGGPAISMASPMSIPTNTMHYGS

Homo sapiens [3] = species: Homo sapiens; test: Selectivity ratio of IC50 for PRMT1 (unknown origin) to IC50 for PRMT4 (unknown origin)
Homo sapiens [4] = species: Homo sapiens; test: Selectivity ratio of IC50 for PRMT6 (unknown origin) to IC50 for PRMT4 (unknown origin)
Homo sapiens [5] = species: Homo sapiens; test: Selectivity ratio of IC50 for PRMT3 (unknown origin) to IC50 for PRMT4 (unknown origin)
Homo sapiens [6] = species: Homo sapiens; test: Selectivity ratio of IC50 for PRMT8 (unknown origin) to IC50 for PRMT4 (unknown origin)
[7] = target: T1, Histone-arginine methyltransferase CARM1 (Homo sapiens); test: Inhibition of wild-type PRMT4 (unknown origin) ectopically expressed in HEK293T cells assessed as reduction in PABP1 dimethylation measured after 96 hrs by Western blotting analysis; format: cell-based
Homo sapiens [8] = species: Homo sapiens; test: Selectivity ratio of IC50 for recombinant full-length human PRMT7 expressed in Sf9 insect cells (unknown origin) to IC50 for PRMT4 (unknown origin)
MOLM-13 = test: Antiproliferative activity against human MOLM13 cells measured after 6 days by CCK8/SRB assay; format: functional, cell-based
[9] = target: T1, Histone-arginine methyltransferase CARM1 (Homo sapiens); test: Inhibition of wild-type PRMT4 (unknown origin) ectopically expressed in HEK293T cells assessed as reduction in asymmetric dimethyl arginine level measured after 96 hrs by Western blotting analysis; format: cell-based
[10] = target: T1, Histone-arginine methyltransferase CARM1 (Homo sapiens); test: Inhibition of PRMT4 in human MOLM13 cells assessed as reduction in asymmetric dimethyl arginine level measured after 96 hrs by Western blotting analysis; format: cell-based

CNC[C@@H](O)CN1CCc2c(cccc2OCc2ccc(-c3nccs3)cc2)C1
Ratio IC50 (Homo sapiens [1]): > 100
inhibition [2]: Dose-dependent effect
Ratio IC50 (Homo sapiens [3]): > 100
Ratio IC50 (Homo sapiens [4]): 380
Ratio IC50 (Homo sapiens [5]): > 100
Ratio IC50 (Homo sapiens [6]): > 100
inhibition [7]: Dose-dependent effect
Ratio IC50 (Homo sapiens [8]): > 100
Activity (MOLM-13): Dose-dependent effect
inhibition [9]: Dose-dependent effect
inhibition [10]: Dose-dependent effect
